Test results from ChEMBL document CHEMBL1131477, “Synthesis and biological activity of a novel series of nonsteroidal, peripherally selective androgen receptor antagonists derived from 1,2-dihydropyridono[5,6-g]quinolines” (J Med Chem, 1998).

The chains behind the UniProt entries cited, without tags or fusion partners. Where a name states a change or a piece, a line headed by the entry shows the natural chain unless it says otherwise.
UniProt P10275: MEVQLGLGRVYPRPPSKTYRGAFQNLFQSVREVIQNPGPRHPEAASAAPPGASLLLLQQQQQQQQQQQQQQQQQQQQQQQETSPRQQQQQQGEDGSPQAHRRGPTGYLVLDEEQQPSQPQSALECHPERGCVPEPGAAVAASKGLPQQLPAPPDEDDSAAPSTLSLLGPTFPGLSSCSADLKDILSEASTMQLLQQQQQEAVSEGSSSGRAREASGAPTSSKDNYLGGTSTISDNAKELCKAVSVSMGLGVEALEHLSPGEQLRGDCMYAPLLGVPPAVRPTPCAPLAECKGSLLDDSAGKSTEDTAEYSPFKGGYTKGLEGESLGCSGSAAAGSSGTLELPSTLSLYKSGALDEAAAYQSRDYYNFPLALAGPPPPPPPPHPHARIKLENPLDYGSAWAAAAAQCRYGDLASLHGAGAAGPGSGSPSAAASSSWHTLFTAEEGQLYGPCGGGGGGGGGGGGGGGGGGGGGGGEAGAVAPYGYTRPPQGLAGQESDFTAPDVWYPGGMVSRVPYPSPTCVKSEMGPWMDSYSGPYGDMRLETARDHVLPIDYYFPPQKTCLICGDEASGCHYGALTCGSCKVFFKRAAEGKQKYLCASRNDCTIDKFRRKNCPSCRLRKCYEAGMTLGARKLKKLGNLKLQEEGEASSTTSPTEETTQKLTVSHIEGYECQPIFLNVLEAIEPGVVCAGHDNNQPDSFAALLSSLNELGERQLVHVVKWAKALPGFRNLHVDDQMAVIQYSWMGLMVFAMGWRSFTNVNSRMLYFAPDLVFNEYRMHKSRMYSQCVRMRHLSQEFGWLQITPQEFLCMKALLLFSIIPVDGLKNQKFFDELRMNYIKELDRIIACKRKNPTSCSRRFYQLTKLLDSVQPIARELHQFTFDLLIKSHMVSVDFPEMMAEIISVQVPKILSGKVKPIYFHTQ

Key:
Androgen receptor [1] = molecular target: T1, Androgen receptor (Homo sapiens, UniProt P10275)
Androgen receptor [2] = molecular target: T1, Androgen receptor; assay: biochemical

CCC1(C)CCc2cc3c(C(F)(F)F)cc(=O)[nH]c3cc2N1 (configuration not stated)
IC50 (Androgen receptor [1]): 23 nM | Ki (Androgen receptor [2]): 29 nM
